Test results taken from ChEMBL document CHEMBL6096646, “Sulfonamide-derivatized galactosides selectively target an unexplored binding site in the galectin-9N-terminal domain” (Bioorg Med Chem, 2024).

By UniProt entry, the sequences of proteins in these tests, tags left out.
UniProt P47929, whole entry: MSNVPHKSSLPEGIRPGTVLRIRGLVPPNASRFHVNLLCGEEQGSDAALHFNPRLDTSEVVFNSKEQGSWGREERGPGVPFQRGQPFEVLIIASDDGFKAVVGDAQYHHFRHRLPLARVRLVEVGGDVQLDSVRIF
UniProt P17931, whole entry: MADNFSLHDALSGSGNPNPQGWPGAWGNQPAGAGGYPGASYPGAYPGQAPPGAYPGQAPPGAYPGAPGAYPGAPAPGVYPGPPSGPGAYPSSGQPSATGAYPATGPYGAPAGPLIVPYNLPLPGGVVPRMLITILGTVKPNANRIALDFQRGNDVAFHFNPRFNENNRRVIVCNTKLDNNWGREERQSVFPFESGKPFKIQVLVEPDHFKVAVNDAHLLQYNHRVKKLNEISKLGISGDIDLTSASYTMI
UniProt P09382, whole entry: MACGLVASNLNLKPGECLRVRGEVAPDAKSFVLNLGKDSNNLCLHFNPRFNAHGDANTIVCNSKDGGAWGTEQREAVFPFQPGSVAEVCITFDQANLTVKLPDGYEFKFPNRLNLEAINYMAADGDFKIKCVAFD

How the values were obtained:
Galectin-7 = Galectin-7 (Homo sapiens, UniProt P47929); test: Binding affinity to human Galectin-7 at 2 mM by competitive fluorescence polarization assay
[1] = target: Galectin-9 (Homo sapiens) (UniProt O00182); test: Binding affinity to N-terminal human Galectin-9 at 2 mM by competitive fluorescence polarization assay
[2] = target: Galectin-3 (Homo sapiens) (UniProt P17931); test: Binding affinity to human Galectin-3 at 2 mM by competitive fluorescence polarization assay
[3] = target: Galectin-1 (Homo sapiens) (UniProt P09382); test: Binding affinity to human Galectin-1 at 2 mM by competitive fluorescence polarization assay
[4] = target: T1, Galectin-4 (Homo sapiens) (UniProt P56470); test: Binding affinity to C-terminal human Galectin-4 at 2 mM by competitive fluorescence polarization assay
T1 sequence (whole entry): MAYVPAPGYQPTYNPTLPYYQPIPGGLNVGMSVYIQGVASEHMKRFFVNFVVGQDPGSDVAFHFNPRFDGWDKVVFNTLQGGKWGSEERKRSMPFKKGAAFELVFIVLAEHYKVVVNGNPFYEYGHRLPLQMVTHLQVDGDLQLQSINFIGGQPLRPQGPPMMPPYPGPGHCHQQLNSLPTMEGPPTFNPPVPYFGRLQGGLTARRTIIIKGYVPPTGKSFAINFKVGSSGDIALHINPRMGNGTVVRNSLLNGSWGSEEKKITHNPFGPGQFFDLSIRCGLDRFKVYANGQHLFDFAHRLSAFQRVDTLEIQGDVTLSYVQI

Measured: Activity

CO[C@H]1O[C@H](CO)[C@H](O)[C@H](n2cc(-c3cccc(NS(=O)(=O)c4ccccc4)c3)nn2)[C@H]1O
inactive: Galectin-7

CO[C@H]1O[C@H](CO)[C@H](O)[C@H](n2cc(-c3cccc(S(=O)(=O)Nc4ccccc4)c3)nn2)[C@H]1O
inactive: [1] | Galectin-7 | [2]

CO[C@H]1O[C@H](CO)[C@H](O)[C@H](n2cc(-c3ccccc3NS(=O)(=O)c3cccc4ccccc34)nn2)[C@H]1O
inactive: [3] | [4] | Galectin-7

CO[C@H]1O[C@H](CO)[C@H](O)[C@H](n2cc(-c3ccccc3S(=O)(=O)N(C)c3ccccc3)nn2)[C@H]1O
inactive: [3] | [1] | [4] | Galectin-7 | [2]

CO[C@H]1O[C@H](CO)[C@H](O)[C@H](n2cc(-c3ccccc3NS(=O)(=O)C/C=C/c3ccccc3O)nn2)[C@H]1O
inactive: [3] | [4] | Galectin-7

Active and inactive are the calls of the source.
